Data from US9290477B2, “Inhibitors of β-secretase” (Vitae Pharmaceuticals, Inc., priority 2012, dated 2016).

Amino acid sequences for entries named in this document (tags omitted). Residues count along the entry.
UniProt P56817, 22-454: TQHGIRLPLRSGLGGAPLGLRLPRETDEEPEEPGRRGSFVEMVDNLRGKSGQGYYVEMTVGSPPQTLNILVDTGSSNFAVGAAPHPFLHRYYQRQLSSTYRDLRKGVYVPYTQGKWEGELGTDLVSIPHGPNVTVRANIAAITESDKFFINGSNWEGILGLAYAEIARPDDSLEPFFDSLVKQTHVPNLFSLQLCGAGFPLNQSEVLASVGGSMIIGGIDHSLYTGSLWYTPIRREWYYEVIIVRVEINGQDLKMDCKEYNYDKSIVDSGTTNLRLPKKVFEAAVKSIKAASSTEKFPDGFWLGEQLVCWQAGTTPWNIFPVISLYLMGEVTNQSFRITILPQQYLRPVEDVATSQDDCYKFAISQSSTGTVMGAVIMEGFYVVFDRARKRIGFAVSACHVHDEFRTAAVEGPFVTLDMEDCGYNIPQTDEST

Target: truncated human beta-secretase, BACE1 (amino acids 1-454) (Homo sapiens (Human), UniProt P56817)
Experiment: BACE1 Assay (Assay 1), fluorescence quench assay
Type: biochemical
Conditions: Table 1; pH 4.4, 1 μM substrate peptide; read-out: BACE 1 IC50 nM (Assay 1)
Procedure: The inhibitory activity of compounds was assessed by a fluorescence quench assay of BACE1 activity using commercially available substrate HiLyte Fluor™488-Glu-Val-Asn-Leu-Asp-Ala-Glu-Phe-Lys-(QXL™ 520)-OH (SEQ ID NO:1) (AnaSpec, San Jose, Calif.) and truncated human beta-secretase, BACE1 (amino acids 1-454) fused to a myc-his tag and secreted from HEK293/BACEect. cells into OptiMEM™ (Invitrogen). The substrate was dissolved at 1 mg/ml in DMSO.
The assay was performed in the presence of OptiMEM™ (supernatant collected over 24 h and cleared from cellular debris by centrifugation) containing the ectodomain of BACE1, 25 μl water containing the desired 2-fold concentration of test compound and 2% DMSO, 1 μM substrate peptide, 20 mM NaOAc, pH 4.4, and 0.04% Triton-X100 in a total assay volume of 50 μl in a 384 well plate. […] The reaction was incubated at rt (dark) in an Envision® multilabel reader (Perkin Elmer) and the cleavage of the substrate was recorded as kinetic for 60 min at ex: 485 nm, em: 538 nm. […]
The intensity of fluorescence was regressed against time in order to derive velocities of reaction in all 384 wells. […] IC50 values were calculated by fitting percent control vs. test compound concentration using Assay Explorer®.

IC50: 16.3 nM
Structure (SMILES): CO[C@H]1CC[C@@]2(Cc3ccc(Br)cc3C23N=C(C)C(N)=N3)C[C@@H]1C (stereo partly shown) [Example 4]
